The record followed here is PubChem BioAssay AID1766 (National Center for Advancing Translational Sciences (NCATS), 2009).

Each structure is given as a SMILES string. Where “and” joins values, the source holds several entries; their conditions need not be identical. Identical values can stand only once. This is a selection; strong and weak results do not stand in their true shares. Inconclusive results are not listed. Calls of active or inactive are those of the source. Calls come from the whole dose curve; as a rule, active = well fitted curve in the direction sought with a large enough effect in the polarisation (not every such curve was filed as active); inconclusive = small, poorly fitted or top-dose-only effect, or effect the other way, or a change in a side signal; inactive = no such curve, though single readings can be large or run the other way; the % refers to the polarisation.

The nature of this assay: qHTS Assay for Inhibitors Targeting the Menin-MLL Interaction in MLL Related Leukemias: Competition With Fluorescein Labeled MLL-derived Peptide. Note: % of control where 0% means no effect. The settings on record: Fluorescence polarization, fluorescein-MLL peptide displacement from menin; at 61.4 µM (top of the series) unless noted. On the technique in general: qHTS replaces the single test concentration by a dilution series.
As to `CN(C)C1(CNC(=O)c2ccc(S(C)(=O)=O)cc2)CCCCC1`, the FP activity change is inactive: 3.12%.

With `COc1cc(C2NCCC3(OCCO3)C2(C)C)cc(OC)c1OC.O=[N+]([O-])c1cc([N+](=O)[O-])c(O)c([N+](=O)[O-])c1` (centres undefined), the FP activity change was inactive: 1.86%.

Take `CC1CCC(C(C)C)C(OP(=O)(Nc2ccccn2)c2ccccc2)C1` (centres undefined): the FP activity change was inactive: -3.51%.

Take `Cc1ccc(C(=O)OC2CN3CCC2CC3)cc1` (centres undefined): the FP activity change is inactive: -4.74%.

As to `Cc1nn(-c2ccccc2)c2c1P(=O)(N1CCOCC1)N(C)C(c1ccccc1)=N2` (centres undefined), the FP activity change is inactive: -2.46%.

As to `Nc1ccc([As](=O)(O)c2ccc([N+](=O)[O-])cc2)cc1`, the FP activity change was inactive: -0.929%.

On to `C(Cc1nn[nH]n1)Cc1nn[nH]n1`, for which the FP activity change was inactive: -0.801%.

Take `O=C(OC1CN2CCC1CC2)c1cccc(Cl)c1` (centres undefined): the FP activity change is inactive: 4.89%.

As for `O=[N+]([O-])c1ccc(O)c(/C=N/Nc2ccc([N+](=O)[O-])cc2[N+](=O)[O-])c1`, the FP activity change was inactive: -0.0049%.

As to `CC(=O)NC(SC(=S)N(C)C)C(Cl)(Cl)Cl` (centres undefined), the FP activity change is inactive: 1.43%.

As for `O=[N+]([O-])c1ccc(OP2(=O)COCCO2)cc1` (centres undefined), the FP activity change is inactive: 2.29%.

As for `O=[N+]([O-])c1ncn(CCn2cnc([N+](=O)[O-])n2)n1`, the FP activity change is inactive: 2.28%.

As to `Cc1cc(-c2cccc3ccccc23)c(C)cn1.O=[N+]([O-])c1cc([N+](=O)[O-])c(O)c([N+](=O)[O-])c1`, the FP activity change was inactive: 4.21%.

Turning to `O=[As](O)(c1ccccc1)c1ccc(O)cc1`, the FP activity change is inactive: -2.56%.

With `C[C@H]1OP(=O)(Oc2ccccc2)[C@H](O)[C@H](O)[C@H]1N=[N+]=[N-]` (some centres undefined), the FP activity change was inactive: 3.48%.

Regarding `CN(C)CCOC(=O)C(O)(c1ccccc1)C1CCCCC1` (centres undefined), the FP activity change was inactive: -0.824%.

For the compound `O=P(Nc1nc2ccccc2s1)(c1ccccc1)c1ccccc1`, the FP activity change was inactive: -2.71%.

Turning to `CN(C(=O)Cc1ccccc1)[C@H]1CC[C@@]2(CCCO2)C[C@@H]1N1CCCC1`, the FP activity change is inactive: -15%.

On to `COc1ccc(NP(C)(=O)Oc2ccccc2OC)cc1` (centres undefined), for which the FP activity change was inactive: -2.1%.

With `COc1ccc(OP(C)(=O)Nc2cccc(Br)c2)cc1` (centres undefined), the FP activity change is inactive: 0.687%.

Consider `O=P(Nc1ccccn1)(c1ccc(Br)cc1)c1ccc(Br)cc1`, for which the FP activity change is inactive: 2.38%.

Regarding `CN(C)C1(CNC(=O)c2ccc(Cl)c(S(N)(=O)=O)c2)CCCCC1`, the FP activity change is inactive: -2.15%.

For `CCN(CCCl)Cc1ccccc1C`, the FP activity change was inactive: -3.09%.

Consider `Cc1ccccc1NP(C)(=O)Nc1ccccc1C`, for which the FP activity change is inactive: 6.56%.

For `CP(=O)(Nc1ccc2c(c1)OCCO2)Oc1ccccc1` (centres undefined), the FP activity change was inactive: 0.917%.

For the compound `CCOP(C)(=S)SCC(=O)NC(C)(CC)C(=O)O` (centres undefined), the FP activity change was inactive: 3.91%.

As to `CCC(C)(OOC(C)(C)C)OOC(C)(C)C`, the FP activity change was inactive: 5.45%.

Regarding `c1nnnn1CCn1cnnn1`, the FP activity change is inactive: -11%.

On to `CP(=O)(Nc1ccc(SC(F)(F)F)cc1)Oc1ccc(F)cc1` (centres undefined), for which the FP activity change was inactive: 5.23%.

`CC(C)C(=O)NC(Sc1ccccc1)C(Cl)(Cl)Cl` (centres undefined): the FP activity change was inactive: -2.86%.

With `O=P(Nc1nccs1)(c1ccccc1)c1ccccc1`, the FP activity change is inactive: -3.62%.

`CC(=O)Nc1ccc(Oc2c([N+](=O)[O-])cc([N+](=O)[O-])cc2[N+](=O)[O-])cc1`: the FP activity change is inactive: -2.43%.

Consider `CC(=O)Nc1ccc([As](=O)(O)O)c(O)c1`, for which the FP activity change is inactive: -3.05%.

Regarding `CC(=O)c1ccc(N2CC2c2ccncc2)cc1` (centres undefined), the FP activity change was inactive: 3.55%.

Turning to `C[C@@H]1C=CCP(=O)(Oc2ccccc2)O1` (some centres undefined), the FP activity change was inactive: 1.85%.

For `C[C@H]1OP(=O)(Oc2ccccc2)C[C@@H]2O[C@@H]21` (some centres undefined), the FP activity change was inactive: -0.782%.

Take `O=C(OCCN1CCN(CCOCc2ccccc2)CC1)C(O)(c1ccccc1)c1ccccc1`: the FP activity change was inactive: 5.87%.

Regarding `CP(=O)(Nc1ccccc1F)Oc1ccccc1` (centres undefined), the FP activity change was inactive: -1.58%.

Turning to `CC(C)c1ccc(OP(C)(=O)Nc2ccc(SC(F)(F)F)cc2)cc1` (centres undefined), the FP activity change is inactive: 7.72%.

Turning to `CC(C)(C)C(=O)NC(Sc1ccccc1)C(Cl)(Cl)Cl` (centres undefined), the FP activity change was inactive: -2.75%.

Turning to `CCOc1ccc(C2=NCC(CBr)S2)cc1` (centres undefined), the FP activity change is inactive: -0.845%.

`O=P1(Nc2nc3ccc(Cl)cc3s2)COc2ccccc2O1` (centres undefined): the FP activity change was inactive: 2.1%.

On to `CP(=O)(Nc1ccccc1)Oc1ccc(F)cc1` (centres undefined), for which the FP activity change is inactive: 0.589%.

On to `CN(C)C(=O)Oc1noc2ccccc12`, for which the FP activity change was inactive: 1.12%.

For the compound `O=c1c2cc([N+](=O)[O-])ccc2[nH]c2c([N+](=O)[O-])cc([N+](=O)[O-])cc12`, the FP activity change is inactive: 0.539%.

`CCCCCOc1ccc(NP(C)(=O)Oc2ccc(Cl)cc2Cl)cc1` (centres undefined): the FP activity change is inactive: -0.408%.

As for `Cc1ccccc1OP(=O)(Nc1ccccn1)Oc1ccccc1C`, the FP activity change is inactive: 0.855%.

In the case of `CC(=O)NC(SC(=S)N(CC(C)C)CC(C)C)C(Cl)(Cl)Cl` (centres undefined), the FP activity change was inactive: 1.49%.

For `Cc1ccc(OP(=O)(Nc2ccccn2)Oc2ccc(C)cc2)cc1`, the FP activity change is inactive: 6.43%.

Take `COC(=O)c1cc2c(s1)N=C(c1ccccc1)N(C)P2(=O)N1CCOCC1` (centres undefined): the FP activity change was inactive: -2.83%.

`CCN(CC)CCCOC(=O)C(O)(c1ccccc1)C1CCCCC1` (centres undefined): the FP activity change was inactive: -0.0761%.

On to `CCC(=O)N1C2C3N(C(=O)CC)C1C1N(C(=O)CC)C(C(N1C(=O)CC)N3C(=O)CC)N2C(=O)CC`, for which the FP activity change is inactive: 4.93%.

`O=C(OC1CN2CCC1CC2)c1ccccc1` (centres undefined): the FP activity change is inactive: 4.89% and inactive: -1.74%.

Take `CCOC(=O)c1ccc(NP(C)(=O)Oc2ccc(F)cc2)cc1` (centres undefined): the FP activity change is inactive: -1.2%.

Consider `COc1ccc(OP(C)(=O)Nc2ccc(SC(F)(F)F)cc2)cc1` (centres undefined), for which the FP activity change is inactive: -1.34%.

With `CCNC(=S)/N=C(\N)N[N+](=O)[O-]`, the FP activity change is inactive: 1.31%.

On to `O=C(NC1CCS(=O)(=O)C1)NP(=S)(Oc1ccccc1)Oc1ccccc1` (centres undefined), for which the FP activity change is inactive: 3.92%.

On to `Cc1ccc(NP(=O)(Oc2cccc(C)c2)Oc2cccc(C)c2)nc1`, for which the FP activity change was inactive: 3.64%.

In the case of `CCOC(=O)NC(Sc1ccccc1)C(Cl)(Cl)Cl` (centres undefined), the FP activity change was inactive: 0.199%.

For `c1ccc(-c2nn[nH]n2)c(-c2nn[nH]n2)c1`, the FP activity change was inactive: -1.46%.

With `CCN(N=Nc1nonc1N)c1nonc1N`, the FP activity change is inactive: 6.36%.

Take `CP(=O)(OCCOc1ccccc1)OCCOc1ccccc1`: the FP activity change is inactive: -2.55%.

As for `CP(=O)(Nc1ccc(Cl)cc1Cl)Oc1ccccc1` (centres undefined), the FP activity change was inactive: 0.922%.

With `Nc1cccc2ccc([As](=O)(O)O)cc12`, the FP activity change is inactive: -0.957%.

Regarding `Cc1nc2ccc3ccccc3c2o1.O=[N+]([O-])c1cc([N+](=O)[O-])c(O)c([N+](=O)[O-])c1`, the FP activity change is inactive: -0.754%.

Turning to `O=[N+]([O-])c1cc([N+](=O)[O-])c(CCN2CCOCC2)c([N+](=O)[O-])c1`, the FP activity change was inactive: 0.997%.

Regarding `Cc1ccc(NP(=O)(Oc2ccccc2F)Oc2ccccc2F)nc1`, the FP activity change was inactive: 2.57%.

Consider `COc1ccccc1OP(C)(=O)Nc1ccc(C)c(C)c1` (centres undefined), for which the FP activity change was inactive: 0.738%.

For `CCOP(=O)(Nc1ccccc1)OCC`, the FP activity change is inactive: 1.83% and inactive: -0.232%.

Regarding `Cc1cc(SC(NC(=O)c2ccc(F)cc2)C(Cl)(Cl)Cl)ncn1` (centres undefined), the FP activity change is inactive: 6.84%.

As for `COc1ccc(OP(C)(=O)Nc2ccccc2Br)cc1` (centres undefined), the FP activity change was inactive: 1.79%.

With `O=C(O)c1ccccc1[As](=O)(O)O`, the FP activity change was inactive: -26.4%.

In the case of `CC(=O)Nc1ccc([As](=O)(O)O)cc1`, the FP activity change is inactive: 1.46%.

As to `Cc1cc(C)cc(OP(C)(=O)Nc2cccc(C(F)(F)F)c2)c1` (centres undefined), the FP activity change was inactive: -0.962%.

As for `O=P(Nc1nc2ccc(Cl)cc2s1)(c1ccccc1)c1ccccc1`, the FP activity change is inactive: 0.718%.

With `COc1ccccc1OP(C)(=O)Nc1ccc(C)cc1C` (centres undefined), the FP activity change was inactive: 3.66%.

As for `CP(=O)(Nc1ccccn1)Oc1ccccc1` (centres undefined), the FP activity change was inactive: -0.73%.

On to `CCc1ccc(OP(C)(=O)O)cc1`, for which the FP activity change is inactive: -3.14%.

For the compound `CC(C)CC(=O)NC(Sc1ccc(Cl)cc1)C(Cl)(Cl)Cl` (centres undefined), the FP activity change was inactive: -4.83%.

Take `O=[N+]([O-])c1cc([N+](=O)[O-])c(Nc2ccccn2)c([N+](=O)[O-])c1`: the FP activity change is inactive: -2.16%.

With `Cc1c(NP(C)(=O)Oc2ccc(C(C)C)cc2)c(=O)n(-c2ccccc2)n1C` (centres undefined), the FP activity change is inactive: 0.933%.

`Nc1cc(N)c2nonc2c1[N+](=O)[O-]`: the FP activity change is inactive: 2.77%.

For `Cc1c2non([O-])c-2c(C)[n+](=O)[n+]1[O-]`, the FP activity change was inactive: -0.296%.

As to `O=C(NC(Sc1ccncn1)C(Cl)(Cl)Cl)c1ccccc1` (centres undefined), the FP activity change was inactive: 6.05%.

Consider `Oc1ccccc1CNc1ccccn1`, for which the FP activity change is inactive: 0.556%.

As to `Cc1ccc(OP(=O)(Nc2nccs2)Oc2ccc(C)cc2)cc1`, the FP activity change is inactive: -1.07%.

For the compound `COc1ccc(OP(C)(=O)Nc2ccccn2)cc1` (centres undefined), the FP activity change was inactive: 0.436%.

As for `COc1ccccc1OP(=O)(Nc1ccc(C)cn1)Oc1ccccc1OC`, the FP activity change was inactive: -0.666%.

Take `Clc1ccc(Cl)c(NC2=NCC(CBr)S2)c1` (centres undefined): the FP activity change is inactive: 0.93%.

With `CN(C)CCOC(=O)C(O)(c1ccccc1)C1CCCC1` (centres undefined), the FP activity change was inactive: 1.7%.

On to `CN1CCCC(OC(=O)C(c2ccccc2)c2ccccc2)C1` (centres undefined), for which the FP activity change is inactive: 2.71%.

Regarding `NC(=O)c1cc([N+](=O)[O-])cc([N+](=O)[O-])c1N`, the FP activity change was inactive: 1.54%.

In the case of `Cc1ccc(N/C(=N/P(=O)(N2CCOCC2)N2CCOCC2)N2CCOCC2)cc1`, the FP activity change is inactive: -3.17%.

Take `COc1ccccc1OP(C)(=O)Nc1ccc(Br)cc1` (centres undefined): the FP activity change was inactive: 2.62%.

On to `CN(C)C(=O)OCCc1n(C)cc[n+]1C`, for which the FP activity change was inactive: 1.16%.

For `CN(C)C(=O)c1c([N+](=O)[O-])cc([N+](=O)[O-])cc1[N+](=O)[O-]`, the FP activity change is inactive: 3.55%.

`CC(C)=N/N=C(\N)N[N+](=O)[O-]`: the FP activity change is inactive: 7.54%.

In the case of `CC(=O)C1=CCCC2CCC1N2` (centres undefined), the FP activity change was inactive: -1.74%.

Turning to `C[N+]1=C2C=CC=CC=C2SC12C([N+](=O)[O-])=CC([N+](=O)[O-])=C[C-]2[N+](=O)[O-]` (centres undefined), the FP activity change was inactive: 0.25%.
